# Test results reported in PubChem BioAssay AID1453 (NMMLSC, 2008).
# Amino acid sequences for entries named in this document (tags omitted).
# UniProt Q9UNQ0, whole entry: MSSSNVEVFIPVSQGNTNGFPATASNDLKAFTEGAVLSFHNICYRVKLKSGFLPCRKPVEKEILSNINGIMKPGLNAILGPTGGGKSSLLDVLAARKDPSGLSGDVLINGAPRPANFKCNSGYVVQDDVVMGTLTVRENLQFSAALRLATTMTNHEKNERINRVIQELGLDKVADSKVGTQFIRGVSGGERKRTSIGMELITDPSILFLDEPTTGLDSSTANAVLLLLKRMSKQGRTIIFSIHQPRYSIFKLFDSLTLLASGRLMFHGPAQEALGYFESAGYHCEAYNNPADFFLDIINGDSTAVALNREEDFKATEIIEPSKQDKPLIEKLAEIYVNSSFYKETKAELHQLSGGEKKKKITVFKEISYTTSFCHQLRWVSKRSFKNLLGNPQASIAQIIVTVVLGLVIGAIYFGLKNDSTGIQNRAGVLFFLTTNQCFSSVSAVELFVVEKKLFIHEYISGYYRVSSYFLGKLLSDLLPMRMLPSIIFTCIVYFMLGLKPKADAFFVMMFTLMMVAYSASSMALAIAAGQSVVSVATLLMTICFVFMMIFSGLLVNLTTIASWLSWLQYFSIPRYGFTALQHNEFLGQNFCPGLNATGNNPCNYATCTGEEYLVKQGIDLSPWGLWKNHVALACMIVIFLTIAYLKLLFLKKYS
# Only a part is listed here, and it is no random draw. Some results for these compounds are left out of this collection, so the calls shown say nothing about other tests. Activity calls are given as the source filed them.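 Rule for the calls: active = inhibition above 50%; inactive = the rest.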
# Target: Broad substrate specificity ATP-binding cassette transporter ABCG2 (Homo sapiens) (UniProt Q9UNQ0)
# Test: ABCG2 efflux pump inhibitors, confirmation, single point, IgMXP3 cells, ABCB1 counter-screen paired (AID 1453);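 note: 0% = DMSO wells and 100% = nicardipine pump inhibitor wells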
# Conditions: JC-1 efflux, flow cytometry, at 6.6 µM, active compounds read high
# In short: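 Material – drug-resistant IgMXP3 cells expressing human ABCG2 · Reagent – JC-1 substrate · Dosing – single test compound dose, 6.6 µM final · Incubation – 10 min exposure at 25 °C · Signal – high-throughput flow cytometry, JC-1 green median fluorescence, 530 ± 20 nm · Read-out – percent pump inhibition versus DMSO and nicardipine · Controls – nicardipine high, DMSO low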
smiles,measurement,value
CN(C)c1cccc(C(=O)NCC2(N(C)C)CCCCC2)c1,inhibition,inactive: 15.2%
